The subject of test [1] is murine STAM™ model of NASH-HCC. Description: Murine STAM model of NASH-HCC, first study (Example 1): H&E NAFLD activity scoring and Sirius red fibrosis area. The class given is in vivo, C57BL/6 mice. As for the experimental part: Male newborn C57BL/6 mice were used. All mice were born from pathogen-free 14 day-pregnant mice obtained from Japan SLC, Inc. (Hamamatsu, Japan) prior to the start of the study.
(§1) The murine STAM™ model of NASH-HCC was performed according to previously described methods known in the art (Takakura et al, Characterization of non-alcoholic steatohepatitis, Anticancer Res, 34(9):4849-55 (2014); Fujii et al, (2013)). NASH was induced in male mice by a single subcutaneous injection of 200 μg of streptozotocin (STZ, Sigma, Mo., USA) at 2 days after birth and continuous feeding after 4 weeks of age (day 28±2) with a high fat diet (CLEA Japan Inc, Tokyo, Japan) given ad libitum.
Following induction of NASH, the mice were randomized into 12 individual study groups of 8 mice each at 6 weeks of age (day 42±2) based on body weight, the day before the start of treatment.
One day following randomization, the mice were administered a once-daily oral treatment from 6 weeks of age plus one day (day 43±2, treatment Day 1) to 9 weeks of age (hereinafter known as the “treatment period”). The mice in 11 of the 12 study groups (hereafter known as “treatment groups”) were treated individually with a distinct pharmacologic compound formulated with a pharmaceutically acceptable vehicle. […] The pharmaceutically acceptable vehicle in all groups was 0.5% carboxymethyl cellulose (CMC). […] Individual body weight was measured daily during the treatment period. Survival, clinical signs and behavior of mice were also monitored daily.
In each case, a volume of 10 mL/kg of 0.5% CMC was administered orally with (or without) the active ingredient as noted in Table 1 from 6 to 9 weeks of age until sacrifice. […]
For quantitative analysis of fibrosis area, bright field images of Sirius red-stained sections were captured around the central vein using a digital camera (DFC295; Leica, Germany) at 200-fold magnification, and the positive areas in 5 fields/section were measured using ImageJ software (National Institute of Health, USA). […]

In test [2] the test system is murine STAM™ model of NASH-HCC. Description: Murine STAM model of NASH-HCC, second study (Example 2): H&E NAFLD activity scoring and Sirius red fibrosis area. Format: in vivo, C57BL/6 mice. The settings on record: once daily oral, 6 to 9 weeks of age, Bromantane high 40 mg/kg, Telmisartan 10 mg/kg. As for the experimental part:
As before, male newborn C57BL/6 mice were used. All mice were born from pathogen-free 14 day-pregnant mice obtained from Japan SLC, Inc. (Hamamatsu, Japan) prior to the start of the study.
as §1
Following induction of NASH, the mice were randomized into 7 individual study groups of 8 mice each at 6 weeks of age (day 42±2) based on their body weight, the day before the start of treatment.
One day following randomization, the mice were administered a once-daily oral treatment from 6 weeks of age plus one day (day 43±2, treatment Day 1) to 9 weeks of age. The mice in 6 of the 7 study groups were treated individually with a therapeutic amount of a pharmacologic compound formulated with a pharmaceutically acceptable vehicle. […] The pharmaceutically acceptable vehicle in all groups was 0.5% CMC. […] Individual body weight was measured daily during the treatment period. Survival, clinical signs and behavior of mice were also monitored daily.
In each case, a volume of 10 mL/kg of 0.5% CMC was administered orally with (or without) the active ingredient as noted in Table 3 from 6 to 9 weeks of age. […]
The liver cross-sections of the treated groups were also subjected to Sirius-red staining using standard techniques for histological estimation of the percentage of fibrosis area. For quantitative analysis of fibrosis area, bright field images of Sirius red-stained sections were captured around the central vein using a digital camera (DFC295; Leica, Germany) at 200-fold magnification, and the positive areas in 5 fields/section were measured using ImageJ software (National Institute of Health, USA). […]

[3] abbreviates: once daily oral, 6 to 9 weeks of age, Bromantane 20 mg/kg, Istradefylline 18 mg/kg, Telmisartan 10 mg/kg.

SMILES strings stand for the structures.

`CCCc1nc2c(C)cc(-c3nc4ccccc4n3C)cc2n1Cc1ccc(-c2ccccc2C(=O)O)cc1` [Telmisartan, 2-(4-{[4-Methyl-6-(1-methyl-1H-1,3-benzodiazol-2-yl)-2-propyl-1H-1,3-benzodiazol-1-yl]methyl}phenyl)benzoic acid]: the “NAFLD Activity Scores, hepatic steatosis, lobular inflammation and hepatocellular ballooning (conclusion)” value in test [1] (Istradefylline at 18 mg/kg, Telmisartan at 10 mg/kg oral, compared to the Vehicle group) is reported as “showed improvement”. Moreover, the “NAFLD activity score relative to Vehicle control” value in test [1] (setting [3]) was “Statistically significant reductions”; in test [2] (Cenicriviroc 30 mg/kg, Bemithyl 200 mg/kg), “Statistically significant reductions”. Also, the “fibrosis area (Sirius red-positive area) compared with the Vehicle group” value in test [1] (setting [3]) is reported as “tended to decrease”; in test [2] (Bemithyl 200 mg/kg, Cenicriviroc 30 mg/kg) it was “tended to decrease”. Besides, the “steatosis score relative to Vehicle control” value in test [2] is “Statistically significant reductions”.

These data come from US11744808B2, “Compositions and methods for treating non-alcoholic steatohepatitis” (ALGERNON PHARMACEUTICALS INC., priority 2018, dated 2023).
